Source: patent publication US20140094493A1, “Novel Ether Linked Compounds and Improved Treatments for Cardiac and Cardiovascular Disease” (priority 2011, published 2014)

Amino acid sequences for entries named in this document (tags omitted).
UniProt P08588, whole entry: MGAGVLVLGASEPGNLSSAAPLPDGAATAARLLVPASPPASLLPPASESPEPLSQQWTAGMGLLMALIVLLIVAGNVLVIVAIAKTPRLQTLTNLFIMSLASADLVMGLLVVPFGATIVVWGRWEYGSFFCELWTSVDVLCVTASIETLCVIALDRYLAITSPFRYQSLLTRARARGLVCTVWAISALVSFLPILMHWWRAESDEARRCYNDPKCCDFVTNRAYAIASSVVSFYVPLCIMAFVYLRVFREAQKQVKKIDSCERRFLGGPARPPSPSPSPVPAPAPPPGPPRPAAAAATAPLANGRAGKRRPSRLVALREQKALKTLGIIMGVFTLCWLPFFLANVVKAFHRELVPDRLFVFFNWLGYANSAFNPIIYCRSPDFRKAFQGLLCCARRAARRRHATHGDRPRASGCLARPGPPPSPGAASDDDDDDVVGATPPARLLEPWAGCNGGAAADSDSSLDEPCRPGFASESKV
UniProt P07550, whole entry: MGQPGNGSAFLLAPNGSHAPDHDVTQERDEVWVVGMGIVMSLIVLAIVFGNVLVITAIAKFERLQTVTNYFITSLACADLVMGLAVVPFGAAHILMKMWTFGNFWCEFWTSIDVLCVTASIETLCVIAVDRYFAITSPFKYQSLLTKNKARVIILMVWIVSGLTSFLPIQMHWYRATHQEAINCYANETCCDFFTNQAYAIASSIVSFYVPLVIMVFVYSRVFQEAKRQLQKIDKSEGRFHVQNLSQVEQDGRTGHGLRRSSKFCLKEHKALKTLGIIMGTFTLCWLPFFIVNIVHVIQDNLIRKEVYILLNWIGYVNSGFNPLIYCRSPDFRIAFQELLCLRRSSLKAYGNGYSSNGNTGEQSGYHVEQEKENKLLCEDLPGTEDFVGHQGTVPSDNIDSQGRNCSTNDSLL

Key:
[1] = target: human beta1-adrenoceptor (Homo sapiens, UniProt P08588); test: 3H-CGP12177 whole-cell binding, beta1
Experimental: (§1) Selectivity of ligands for the three beta-adrenoceptors was assessed by whole-cell binding studies using ^3H-CGP12177 in CHO cells expressing the human beta1, beta2 or beta3-adrenoceptors respectively essentially as described by Baker (2005; Br. J Pharmacol: 144, 317-22) Values shown are KD values determined as described by Baker (2005). KD represents the concentration of compound required to occupy 50% of the receptors in cells or tissues.
(§2) The selectivity of a ligand is given by the ratio of beta-1 to beta-2 KD. Accordingly a difference of one in the logarithmic values thereof represents a 10-fold selectivity, a difference of 2 represents 100-fold selectivity and a difference of 3 represents 1000-fold selectivity etc.

[2] = target: human beta2-adrenoceptor (Homo sapiens, UniProt P07550); test: 3H-CGP12177 whole-cell binding, beta2; details: 3H-CGP 12177 whole cell binding, CHO cells expressing human beta2-adrenoceptor; logarithmic value
Experimental: as §1, §2

Compound: O=C1NCCc2cc(OCCNC[C@H](O)COc3ccc(OCCOC4CCCC4)cc3)ccc21
- Beta 1 Log KD ([1]; 3H-CGP 12177 whole cell binding, CHO cells expressing human beta1-adrenoceptor, logarithmic value): −8.36
- Beta 1-Beta 2 Log KD (selectivity) ([1]; difference of Log KD beta1 and beta2, 1 = 10-fold, 2 = 100-fold, 3 = 1000-fold selectivity): 1.91
- Beta 2 Log KD [2]: −6.46
